# Data: PubChem BioAssay AID2058 (Sanford-Burnham Center for Chemical Genomics, 2009)
# The chains behind the UniProt entries cited, without tags or fusion partners.
# UniProt Q9HC97, whole entry: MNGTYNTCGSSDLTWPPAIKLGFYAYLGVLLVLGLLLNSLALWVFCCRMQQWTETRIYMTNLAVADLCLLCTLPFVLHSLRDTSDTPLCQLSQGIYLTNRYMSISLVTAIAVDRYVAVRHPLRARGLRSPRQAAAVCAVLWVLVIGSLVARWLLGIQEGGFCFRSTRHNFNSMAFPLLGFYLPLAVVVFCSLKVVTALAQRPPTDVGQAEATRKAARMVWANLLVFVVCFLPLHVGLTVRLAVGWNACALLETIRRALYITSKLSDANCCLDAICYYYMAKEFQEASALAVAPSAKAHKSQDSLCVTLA
# This is a selection; strong and weak results do not stand in their true shares. Measured potencies and affinities stand elsewhere. Calls of active or inactive are those of the source.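 How the source made its calls: active means inhibition of at least 50% with at least 30 cells and total cytoplasm GFP at most 10,000,000; inconclusive means under 30 cells or total GFP of 10,000,000 plus; inactive means the rest.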
# Target: G-protein coupled receptor 35 (Homo sapiens) (UniProt Q9HC97)
# Test: GPR35 antagonists blocking zaprinast-driven arrestin recruitment, primary screen, imaging, U2OS, beta-arrestin-GFP, zaprinast agonist (AID 2058)
# Conditions: U2OS GPR35 beta-arrestin-GFP translocation imaging, zaprinast antagonism; at 10 µM; hits give high values
row,Compound,inhibition
1,O=[N+]([O-])c1ccc2c(c1)C=Nc1ccccc1O2,inactive: 6.7%
2,CC(C)(C)c1ccc(OP(C)(=O)Nc2ccc(SC(F)(F)F)cc2)cc1 (stereo unspecified),inactive: 3.8%
3,Cc1cccc(C)c1OP(C)(N)=O (stereo unspecified),inactive: -11%
4,CP(=S)(Nn1cnnc1)Oc1ccccc1 (stereo unspecified),inactive: 3.1%
5,CP(=O)(Nc1ccccc1Br)Oc1ccccc1 (stereo unspecified),inactive: 17%
6,COc1ccccc1OP(C)(=O)Nc1ccccc1 (stereo unspecified),inactive: -10.3%
7,CCOC(=O)c1ccc(NP(C)(=O)Oc2ccc(OC)cc2)cc1 (stereo unspecified),inactive: -12.1%
8,CCOP(C)(=S)SCC(=O)NC(C)C(=O)O (stereo unspecified),inactive: -18.9%
9,CP(=O)(Nc1ccccn1)Oc1ccc(Cl)cc1 (stereo unspecified),inactive: 6%
10,Cc1cccc(C)c1OP(C)(=O)Nc1ccc(SC(F)(F)F)cc1 (stereo unspecified),inactive: 3.8%
11,CP(=O)(Nc1ccc(SC(F)(F)F)cc1)Oc1ccc(Cl)cc1 (stereo unspecified),inactive: 3.5%
12,CP(=O)(Oc1ccccc1)OC(c1ccccc1)C(F)(F)F (stereo unspecified),inactive: -6.7%
13,CCc1ccc(OP(C)(=O)N2CCN(c3ccc([N+](=O)[O-])cc3)CC2)cc1 (stereo unspecified),inactive: -10.8%
14,CP(=O)(NC(=O)Nc1ccccc1)Oc1ccccc1 (stereo unspecified),inactive: 6.9%
15,Cc1cc(C)cc(OP(C)(=O)Nc2ccc(SC(F)(F)F)cc2)c1 (stereo unspecified),inactive: -3.6%
16,Cc1nc2ccc3ccccc3c2s1.O=[N+]([O-])c1cc([N+](=O)[O-])c(O)c([N+](=O)[O-])c1,inactive: 5.8%

row,Compound,inhibition
1,O=[N+]([O-])c1cc([N+](=O)[O-])c(-n2nnc3ccccc32)c([N+](=O)[O-])c1,inactive: -11.2%
2,COc1ccccc1OP(C)(=O)Nc1c(C)cccc1C (stereo unspecified),inactive: 1.5%
3,CN1CCCCC1COC(=O)C1(O)c2ccccc2CCc2ccccc21 (stereo unspecified),inactive: 5.7%
4,CP(=O)(Nc1ccc(SC(F)(F)F)cc1)Oc1ccccc1 (stereo unspecified),inactive: 10.1%
5,CCCOc1ccc(NP(C)(=O)Oc2ccc(Cl)cc2)cc1 (stereo unspecified),inactive: -2.3%
6,O=[N+]([O-])c1cc([N+](=O)[O-])c(Nc2nnnn2CCO)c([N+](=O)[O-])c1,inactive: -6.4%
7,CCOC(=O)C(CC)C1=NC(C)(C)Cc2ccccc21.O=[N+]([O-])c1cc([N+](=O)[O-])c(O)c([N+](=O)[O-])c1 (stereo unspecified),inactive: 14.9%
8,CC1=NCCc2c1[nH]c1ccccc21.O=[N+]([O-])c1cc([N+](=O)[O-])c(O)c([N+](=O)[O-])c1,inactive: -13.5%
9,O=C(O)c1cccc(Nc2c([N+](=O)[O-])cc([N+](=O)[O-])cc2[N+](=O)[O-])c1,inactive: -12.6%
10,Cc1ccc(C)c(NP(C)(=O)Oc2ccccc2)c1 (stereo unspecified),inactive: 2.5%
11,CP(=O)(Nc1cccc(Br)c1)Oc1ccccc1 (stereo unspecified),inactive: -7.6%
12,Cc1cc(C)cc(OP(C)(=O)Nc2ccccn2)c1 (stereo unspecified),inactive: 6.1%
13,COc1ccccc1OP(C)(=O)Nc1cccc(Br)c1 (stereo unspecified),inactive: 2.5%
14,CCOC(=O)c1ccc(NP(C)(=O)Oc2cc(C)cc(C)c2)cc1 (stereo unspecified),inactive: -7.4%
15,Cc1cc(C)cc(OP(C)(=O)Nc2ccc(C)cc2C)c1 (stereo unspecified),inactive: -2.4%
